The values below are quoted from earlier work in patent US20220143023A1, “COMPOUNDS WITH ANTI-TUMOR ACTIVITY AGAINST CANCER CELLS BEARING EGFR OR HER2 EXON 20 INSERTIONS” (Board of Regents, The University of Texas System, priority 2019, published 2022).

For the data set, the system named is NSCLC patients with classical sensitizing mutations (L858R and exon 19 deletions). Particulars: Maemondo et al., 2010; cited from earlier work.

Each structure is given as a SMILES string.

Regarding `COc1cc2ncnc(Nc3ccc(F)c(Cl)c3)c2cc1OCCCN1CCOCC1` [Gefitinib], the “patients experiencing objective responses (OR)” value was “approximately 70%”.
